Results: patent publication US20250235422A1, “DODECA-2,4,6,8,10-PENTAENOIC ACID COMPOSITIONS AND USES THEREOF” (BiomEdit, Inc., priority 2024, published 2025)
Entries after “also recorded” stand apart in the source; their conditions may differ.

Columns and labels:
[1] = Light stability and hydrophobicity observed during development; assay type: physicochemical
AHR [2] = biological target: T1, AHR (Homo sapiens, UniProt P35869); experiment: AhR activity assay using HepG2-Lucia AhR reporter cells; assay type: cell-based; conditions: isolated orange pigmented PKS metabolite from L. reuteri 3632
T1 sequence (P35869 11-848): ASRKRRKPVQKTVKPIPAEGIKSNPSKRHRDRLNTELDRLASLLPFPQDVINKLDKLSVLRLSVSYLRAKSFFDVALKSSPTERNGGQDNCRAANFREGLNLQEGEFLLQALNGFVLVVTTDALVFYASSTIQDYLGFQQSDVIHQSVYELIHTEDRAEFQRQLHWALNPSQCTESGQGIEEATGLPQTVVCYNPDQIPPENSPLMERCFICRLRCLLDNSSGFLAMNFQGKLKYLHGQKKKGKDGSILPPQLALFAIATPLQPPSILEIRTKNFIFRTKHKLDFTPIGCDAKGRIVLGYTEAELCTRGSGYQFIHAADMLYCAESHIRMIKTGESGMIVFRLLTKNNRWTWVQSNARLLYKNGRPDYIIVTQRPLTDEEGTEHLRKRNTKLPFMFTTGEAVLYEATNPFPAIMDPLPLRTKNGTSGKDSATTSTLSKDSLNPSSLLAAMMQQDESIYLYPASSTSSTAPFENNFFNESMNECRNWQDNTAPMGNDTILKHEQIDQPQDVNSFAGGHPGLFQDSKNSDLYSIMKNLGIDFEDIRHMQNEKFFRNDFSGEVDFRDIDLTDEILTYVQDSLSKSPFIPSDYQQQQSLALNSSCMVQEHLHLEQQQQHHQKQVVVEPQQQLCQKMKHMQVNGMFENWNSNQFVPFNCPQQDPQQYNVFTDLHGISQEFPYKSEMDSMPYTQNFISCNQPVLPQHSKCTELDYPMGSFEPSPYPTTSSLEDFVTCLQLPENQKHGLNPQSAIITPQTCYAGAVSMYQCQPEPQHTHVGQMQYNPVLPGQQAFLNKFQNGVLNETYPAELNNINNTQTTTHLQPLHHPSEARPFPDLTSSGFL

AHR [3] = biological target: T1, AHR; conditions: AHR ligand activity; Table 1 reproduced from Barroso A et al., 2021; cited from earlier work

| hydrophobicity [1] | Structure (SMILES) | AhR agonist activity (AHR [2]) | Activity (AHR [3]) |
| --- | --- | --- | --- |
| hydrophobic | CC=CC=CC=CC=CC=CC(=O)O [DDPA, dodeca-2,4,6,8,10-pentaenoic acid] | effective AhR agonist; also recorded: agonist of the AhR signaling pathway | – |
| – | COc1ccc(-c2cc(=O)c3c(O)cc(O[C@@H]4O[C@H](CO[C@@H]5O[C@@H](C)[C@H](O)[C@@H](O)[C@H]5O)[C@@H](O)[C@H](O)[C@H]4O)cc3o2)cc1O [Diosmin] | – | Agonist |
